These are literature values, as cited in paper PMC7730073.

Data set [1] addresses Metallothionein-3 (Homo sapiens) (UniProt P25713).
For data set [2], the target named is Retinol-binding protein (Homo sapiens) (UniProt P02753).

Take Transthyretin (from UniProt P02766): the dissociation constant Kd in data set [1] is 374 nM; in data set [2], 800 nM.
